Experimental data published in ChEMBL document CHEMBL5532701 (RSC Med Chem, 2024).
Active and inactive are the calls of the source. The rule behind the calls is not given here.

Assays:
Plasmodium falciparum = assay: Antiplasmodial activity against Plasmodium falciparum 3D7 infected in human erythrocyte assessed as inhibition of parasite proliferation at 0.1 to 1000 uM in thiamine free medium by SYBR-Safe assay; format: functional, organism-based; conditions: dose 0.1-1000 µM
Catharanthus roseus = assay: Inhibition of Catharanthus roseus DXPS at 20 uM relative to control
Escherichia coli = assay: Inhibition of Escherichia coli OGDHc E1 subunit assessed as DCPIP reduction at 250 uM preincubated for 60 mins followed by pyruvate addition using 50 uM ThDP as substrate by microplate reader analysis

inhibition (Catharanthus roseus) [%] | inhibition (Escherichia coli) [%] | Structure (SMILES) | Activity (Plasmodium falciparum)
40 | < 5 | CC1(C)C(=O)ON(Cc2ccccc2Cl)C1=O [KETOCLOMAZONE] | Active
 | < 5 | CC(C)(C(=O)O)C(=O)N(O)Cc1ccccc1Cl | Active
